Antibody variant affinities, Ab-14 light chain, assay 1

Source: Engelhart et al. 2022 (doi:10.1038/s41597-022-01779-4), MIT Lincoln Laboratory and A-Alpha Bio; data file from the FLAb repository.

All variants were tested on one target, the spike HR2 peptide PDVDLGDISGINAS (SARS-CoV-2).

The variants keep the heavy chain, the linker and the frameworks of Ab-14 (scFv order VH, three GGGGS repeats, VL).
VH: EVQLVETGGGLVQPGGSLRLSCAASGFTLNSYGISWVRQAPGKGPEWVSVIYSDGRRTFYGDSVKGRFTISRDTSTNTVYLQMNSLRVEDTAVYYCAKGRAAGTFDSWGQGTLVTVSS
VL: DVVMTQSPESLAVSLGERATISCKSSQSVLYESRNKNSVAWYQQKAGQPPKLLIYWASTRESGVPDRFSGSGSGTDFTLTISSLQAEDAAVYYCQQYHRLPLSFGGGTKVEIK

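The starting antibody came from a phage panning campaign against this peptide. In library AAYL50, one, two or three CDR residues were substituted; doubles and triples were drawn at random. In AlphaSeq, yeast of one mating type display the scFv and yeast of the other type display the target. After mating in shaken culture at 30 °C for 16 h, diploids were selected and their barcode pairs sequenced. Each replicate has its own calibration line, from reference interactions of the BCL2 family. The assay was run in three technical replicates.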

The parent's light chain CDRs are KSSQSVLYESRNKNSVA, WASTRES, QQYHRLPLS; each variant's own CDRs replace them letter for letter.
This list gathers variants with a substitution at S103 (VL, numbered from residue 1).
Values are log10 of the apparent Kd in nM; lower means stronger binding.
The mean shown is taken over the replicates in which the pair was detected.
A pair that was not seen in any replicate is written "no signal"; this usually means weak binding, but a binder can also be missed.

With KSSQSVLYEQRNKNSVA / WWSTRES / QQYHRLPLC the result was 4.80 (1 of 3 replicates).
With KSSQSVLYESRNKNSVA / WASTREQ / QQYHRLPVI the result was 2.61 (3 of 3 replicates).
With KSSQSVLYFSRNKNSVA / WASTRES / QQYHRLPLD the result was no signal (0 of 3 replicates).
With KSSQSVHYESRNKNSVA / WASTRES / QQYQRLPLH the result was 2.28 (3 of 3 replicates).
With KSTQSVLYESRNKNSVA / AASTRES / QQYHRLPLD the result was -0.22 (3 of 3 replicates).
With KISQSVLYESRNKNSVA / WASTRES / QQDHRLPLK the result was 3.51 (1 of 3 replicates).
With KSSQSVLYESRNKNSVA / WASTRES / QQYHRPPLA the result was no signal (0 of 3 replicates).
With KSSQHVLYESRNKNSVA / WASTRES / QQYHRLPLI the result was 1.85 (3 of 3 replicates).
With KSSQSVLYESRNKNSVA / WASTQES / QQYHRCPLQ the result was 2.73 (3 of 3 replicates).
With KSSQSVLYESRNKNSVA / WASTRES / QQYHRLPLD the result was no signal (0 of 3 replicates).
With KSRQSVLYESRNKNSVA / WASTRES / QQYHRLPDP the result was 1.19 (3 of 3 replicates).
With KSSQSVLYSSRNKNWVA / WASTRES / QQYHRLPLV the result was no signal (0 of 3 replicates).
With KSSQGVLAESRNKNSVA / WASTRES / QQYHRLPLW the result was 1.93 (3 of 3 replicates).
With KSSQSVLYESRNKNSVA / WDSTRES / SQYHRLPLM the result was 2.93 (2 of 3 replicates).
With KSSQSVLYESRNKNSWA / WASTRES / QQYHRLPLE the result was 4.05 (1 of 3 replicates).
With KSSQSELYESKNKNSVA / WASTRES / QQYHRLPLL the result was no signal (0 of 3 replicates).
With KSSQSVLYESRNKNSMA / WASTDES / QQYHRLPLY the result was no signal (0 of 3 replicates).
With KSSQSVLYESRNKNSVA / MASKRES / QQYHRLPLR the result was 1.41 (3 of 3 replicates).
With KSSQSVLYESRNDNSVA / WPSTRES / QQYHRLPLH the result was 2.62 (2 of 3 replicates).
With KSSQSVLYESRNKNSVA / WYSLRES / QQYHRLPLW the result was no signal (0 of 3 replicates).
With KSSQSVLYESTNKNSVA / WASTRES / QQYCRLPLD the result was 0.72 (3 of 3 replicates).
With KSSQSVLYESRNKNSVA / WASTGES / QQYPRLPLH the result was no signal (0 of 3 replicates).
With KSSQSVLYESPNKNSVA / WYSTRES / QQYHRLPLA the result was no signal (0 of 3 replicates).
With KSSQSVLYEGRNINSVA / WASTRES / QQYHRLPLL the result was 0.89 (3 of 3 replicates).
With KSSQSVLYESRNKNSVA / WKSTRES / QQYHRRPLI the result was no signal (0 of 3 replicates).
With KRSQSVLYESRNKCSVA / WASTRES / QQYHRLPLR the result was no signal (0 of 3 replicates).
With KSSQSVLFESRNKNSVA / WASTRES / VQYHRLPLN the result was 3.67 (1 of 3 replicates).
With KSSQSVLYESRNKNSVA / WASNRES / QQYHRQPLD the result was no signal (0 of 3 replicates).
With KSSQPVLYESRNKNSVA / WASERES / QQYHRLPLF the result was 0.82 (3 of 3 replicates).
With KSSESVLYESRNKNSVA / WASTRQS / QQYHRLPLF the result was 1.35 (3 of 3 replicates).

A selection of 2 entries from above:

CDR-L1,CDR-L2,CDR-L3,"log10 Kd (nM), mean",seen in
KSSQSVHYESRNKNSVA,WASTRES,QQYQRLPLH,2.28,3/3
KSSQSVLYESRNKNSVA,WASTRES,QQYHRPPLA,no signal,0/3

Background: pairings of library AAYL50 with three empty control strains gave a value in 18% of cases (median 4.19, 5th percentile 2.99). Values in that range, when seen in few replicates, are hard to tell from nonspecific mating.